# Binding of CDR-mutated scFvs to a peptide of the spike HR2 region

Data: MIT Lincoln Laboratory AlphaSeq set, Engelhart et al. 2022, doi:10.1038/s41597-022-01779-4, as distributed in FLAb.

Binding partner: SARS-CoV-2 spike HR2 peptide, sequence PDVDLGDISGINAS.

Each scFv is VH, three GGGGS repeats, VL, as in the parent Ab-14, and differs from it in the CDRs of the heavy chain only.
VH: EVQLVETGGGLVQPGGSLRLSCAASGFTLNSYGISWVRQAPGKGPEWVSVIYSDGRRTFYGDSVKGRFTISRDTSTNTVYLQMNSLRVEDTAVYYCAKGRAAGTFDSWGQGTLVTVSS
VL: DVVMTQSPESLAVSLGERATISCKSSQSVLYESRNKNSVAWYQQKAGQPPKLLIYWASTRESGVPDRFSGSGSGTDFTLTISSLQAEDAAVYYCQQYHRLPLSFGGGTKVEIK

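Phage display of a naive human antibody library on the peptide gave the parent. AAYL49 was designed without a model: most single CDR substitutions and a random sample of double and triple ones. The scFvs were displayed on barcoded MATa yeast, the peptide on MATalpha yeast. Binding brings cells together so that they mate, and sequencing counts the barcode pairs among the diploids. A regression on co-assayed BCL2-family reference pairs converts the normalised counts of each replicate to an apparent Kd. There are three technical replicates.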

Each variant is given by its three heavy chain CDRs, as the data file delimits them; those of the parent are GFTLNSYGIS, VIYSDGRRTFYGDSVK, GRAAGTFDS.
Numbers give log10(Kd / nM), so 0 is 1 nM and 3 is 1 µM. Smaller is tighter.
The mean shown is taken over the replicates in which the pair was detected.
An entry "not detected" has no value in the source: the pair was not observed among the diploids in any replicate. This suggests poor binding but is not conclusive.
Empty control strains, which show no peptide, gave a signal in 15% of pairings with library AAYL49; the median was 4.06 and 95% of these signals were weaker than 2.83. No background was subtracted.
In this assay the parent's reference entry averaged 0.65; its copy inside this library read 4.11 (one replicate of three).

CDR-H1,CDR-H2,CDR-H3,mean log10 Kd (nM),replicates with signal
GFTLNSYMIS,VIYSDGRRTFYGDSVK,GRAAGTFDG,5.82,1 of 3
GFTLNSGGIS,VIYSYGRRTFYGDSVK,ARAAGTFDS,3.44,1 of 3
GFVLNSYGIS,VIYSDGRRTFYGDEVK,GRAAGTFDS,2.42,3 of 3
GATLNSYGIS,VIYSDGRRTFYGDSVK,GRAAGDFGS,4.02,2 of 3
GFTLNSYGSS,VIYSDGRRTFYGDSVK,GRAAGTDDD,not detected,0 of 3
GFTLGSYGIS,VIYSDGRRTFYGDWVK,GRAAGTFFS,5.11,2 of 3
GFTQMSYDIS,VIYSDGRRTFYGDSVK,GRAAGTFDS,not detected,0 of 3
GFTLNSYGIS,VIYSDGRRTFDGPSVK,GRAAGTYDS,3.09,3 of 3
GFTLNSYGIS,VDYSDGRRTFYDDSVK,GRAAGTFDS,3.77,1 of 3
GFTLNSYGIS,VIYSDGRRKFQGDSVN,GRAAGTFDS,5.07,2 of 3
GFTLNWYGIS,VIYSDGRRTWYGDSVK,GRVAGTFDS,3.75,3 of 3
GFTLNSYGIS,VVYSDGRRTQYGDSVK,GTAAGTFDS,5.54,1 of 3
GFTLNHYWIM,VIYSDGRRTFYGDSVK,GRAAGTFDS,5.22,1 of 3
GFTLNPYGIS,VIYSDGRRTFYGDSVK,GRNAGTFDS,2.61,1 of 3
GGTLNPYGIS,VIYSDGRRTFYGDSVK,GRAAGTPDS,4.57,3 of 3
GFTLNSYGIS,VIYSDGRVTFYGDEVK,GRAAGTFDS,3.98,1 of 3
GFTLNSYGIS,VSYSDSRNTFYGDSVK,GRAAGTFDS,not detected,0 of 3
GFTLNGYGII,VKYSDGRRTFYGDSVK,GRAAGTFDS,not detected,0 of 3
GQTLNSYGIS,VSYSDGRRTFYGDSVK,GRAAETFDS,4.49,2 of 3
GFTLNSYGIS,VIISDGRRTPQGDSVK,GRAAGTFDS,not detected,0 of 3
GFTLNNYGIS,VIYSQGRRTFYGDSVK,GRAAGTFDS,5.64,2 of 3
GFTLRSYGIS,VIYSWGRRTFYGDSVK,GRAAGTFDE,not detected,0 of 3
GFTLNSYGIS,VIYSFGRKTFAGDSVK,GRAAGTFDS,5.35,1 of 3
GSTHNSYGIS,VIYSDGRRTFYGDHVK,GRAAGTFDS,not detected,0 of 3
GFTLNSMGIS,VIYSDGRRGFYGLSVK,GRAAGTFDS,5.01,1 of 3
GFTLNSYGIS,VIYSDGERTFYGDSFK,GRAGGTFDS,2.21,3 of 3
GFTLNSYGIS,VIYSDGRRTFYGDSVK,GRAAGSFMS,1.60,3 of 3
GFTLNSYGIK,VMYSDPRRTFYGDSVK,GRAAGTFDS,not detected,0 of 3
GFTLNSKGIS,VIYSDGRRTFYGDSVK,GRAAGTYDF,not detected,0 of 3
GFALNSYGIS,VIYSDGRRTEYGDSVK,GRAAMTFDS,0.72,3 of 3
GFTLNSHGIS,VIYSDGRRTFFGDSVK,GVAAGTFDS,not detected,0 of 3
GFTLNSYGIS,VIYEDGRRTNYGDSVK,GRAAGRFDS,4.57,1 of 3
GFTLNLYGTS,VIYSDGSRTFYGDSVK,GRAAGTFDS,not detected,0 of 3
IFTLNSYGIS,VWYSDGRRTFYGDSVK,GRAAGTGDS,not detected,0 of 3
GFTFNSYGIS,RIYSDGRRTFYGDSRK,GRAAGTFDS,3.69,1 of 3
GFTLNSYGIS,VIYSDGRATFLGKSVK,GRAAGTFDS,4.00,2 of 3
GFTLNSYGIS,VIYSDGRRHFYNDSVI,GRAAGTFDS,4.20,3 of 3
GFTLNSYGLS,VIYSDGRRTFYGDSVK,GRAAGTFVM,3.41,1 of 3
GFTLNSYGIS,VKYSEGRRTFYGDSVK,GRASGTFDS,not detected,0 of 3
GFTLNSYGIS,VIYSDGRRMPYGNSVK,GRAAGTFDS,5.24,1 of 3
GFTLNPYGIS,VIRSDGRRTFYGDSVA,GRAAGTFDS,not detected,0 of 3
GFTLNSYGIT,MIYSDGRRTFYGDSSK,GRAAGTFDS,3.34,1 of 3
GFTLNSQGIY,VIYSCGRRTFYGDSVK,GRAAGTFDS,not detected,0 of 3
GFTLNSYGIS,VIWSDGRRTWYGDLVK,GRAAGTFDS,5.07,3 of 3
GFTLNSYGIS,VIESDGRREFYGDDVK,GRAAGTFDS,not detected,0 of 3
GFTLNSYIIS,VIYSDGRRTIYGHSVK,GRAAGTFDS,not detected,0 of 3
GFTWNSYGIS,VIYSDGRRTFYGDSYK,GRAAGTGDS,not detected,0 of 3
GFTLNSYGPS,YIYSDGRRTFYGDSVK,GRAAGRFDS,not detected,0 of 3
GFTLNSYGIS,VIYGDGRRTFYGSSVK,GRAAGTFKS,4.59,3 of 3
GFTLNSYGIS,VITSDGRRTFGGDSVK,GRAAGTHDS,not detected,0 of 3
GFILNSYGIS,VIYSDGRRTFYGDSVK,HRAAGTFQS,not detected,0 of 3
GFTLNSYEIS,VIYSDGRRTFYGDSVK,GRAAGIFLS,not detected,0 of 3
GFTLNSYGIS,VIYSDGRRGQYGDSVK,GRAAGTYDS,not detected,0 of 3
GFTLNSYGES,VIYSDGRRTSYGDSVK,GRAMGTFDS,4.53,2 of 3
GFTLNSYGIS,VIYSDGYRTFYGDVVY,GRAAGTFDS,6.00,1 of 3
GFTLNSYGIS,VIYRDPRRTFYGDSVK,GRAAGTFKS,not detected,0 of 3
GFTFVSMGIS,VIYSDGRRTFYGDSVK,GRAAGTFDS,3.30,1 of 3
KFTLNSYGIS,VGYSDGRRTFYGDSVK,GRAAGTLDS,3.95,2 of 3
GFTLNSYGIS,VIYSDGEWTFYGDSVK,QRAAGTFDS,not detected,0 of 3
GFTLNSYGIS,VIYQDGRRTFYGDSVK,GRAACTFHS,2.44,3 of 3
GFTLNSYGIS,VTYSDGMRTFYGDSVK,GRAAGTFDP,4.07,1 of 3
GFTLNSYGIS,VNYSDGRRTFYGDSFK,GRAAGTIDS,2.85,1 of 3
GFTLNSYGIS,VIYSDGRRFFYGLSDK,GRAAGTFDS,not detected,0 of 3

For reference, 3 entries of the list once more:

| CDR-H1 | CDR-H2 | CDR-H3 | mean log10 Kd (nM) | replicates with signal |
|---|---|---|---|---|
| GFTLNGYGII | VKYSDGRRTFYGDSVK | GRAAGTFDS | not detected | 0 of 3 |
| GFTLNSYGIS | VSYSDSRNTFYGDSVK | GRAAGTFDS | not detected | 0 of 3 |
| GFTLNSYGIS | VITSDGRRTFGGDSVK | GRAAGTHDS | not detected | 0 of 3 |